This data set deals with female Balb/c WT mice. The data set can be described thus: Dose and administration route tolerability of cyclic C1.

In patent publication US20120077732A1, “CYCLIC PEPTIDES AND USES THEREOF” (SYDNEY WEST AREA HEALTH SERVICE, priority 2008, published 2012) one finds tolerability data, which are given here for 1 compound.

Regarding `CC(C)C[C@@H]1NC(=O)[C@@H](CC(C)C)NC(=O)[C@H](CCCNC(=N)N)NC(=O)[C@@H](CC(C)C)NC(=O)CNC(=O)[C@@H](C(C)C)NC(=O)[C@H](CCCCN)NC(=O)[C@@H](CC(C)C)NC(=O)[C@H](CC(C)C)NC(=O)[C@@H](CC(C)C)NC1=O` [C1, LDRLDLLDLLDKVDG], the tolerability entry runs as follows: (200 μg intraperitoneal injection (group 3), listed as cyclic C1) “did not tolerate”; (200 μg intraperitoneal injection (group 3), listed as cyclic C1 peptide) “exhibit signs of distress”; (200 μg subcutaneous injection) “did not cause any adverse effects”; (400 μg intraperitoneal dose) “death of mice”; (50, 100 or 200 μg subcutaneous (groups 4-6), day 0) “did not show any adverse effects except for some minor irritation (scratching) at the site of injection”; (50 or 100 μg intraperitoneal (groups 1 & 2), day 0, first 60 minutes, normal by 2 hours) “appeared slightly distressed”.
